# Measured affinities in a library of Ab-14 light chain variants

All variants were tested on one target, the spike HR2 peptide PDVDLGDISGINAS (SARS-CoV-2).

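The starting antibody came from a phage panning campaign against this peptide. This is the validation round: designs drawn from the data on random variants, tested in the same kind of assay. Group labels follow the data file (Ctrl: baseline library sampled from a position-specific scoring matrix, with some repeated check sequences; En: ensemble of fine-tuned language models; GP: Gaussian process model; HC: hill climbing; Gen: genetic algorithm; Gibbs: Gibbs sampling; a sequence that several methods proposed may carry one label only). The scFvs were displayed on barcoded MATa yeast, the peptide on MATalpha yeast. The frequency of each diploid, read from paired DNA barcodes, reflects how well the two displayed proteins bind. The ratio of observed to expected reads was calibrated, replicate by replicate, on BCL2-family standards whose Kd was known from biolayer interferometry. The assay was run in six technical replicates.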

Each scFv is VH, the linker GGGGSGGGGSGGGGS, VL, as in the parent Ab-14, and differs from it in the CDRs of the light chain only.
VH: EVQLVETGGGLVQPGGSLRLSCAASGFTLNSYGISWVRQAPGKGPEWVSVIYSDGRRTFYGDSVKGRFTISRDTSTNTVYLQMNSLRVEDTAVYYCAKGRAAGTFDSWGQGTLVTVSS
VL: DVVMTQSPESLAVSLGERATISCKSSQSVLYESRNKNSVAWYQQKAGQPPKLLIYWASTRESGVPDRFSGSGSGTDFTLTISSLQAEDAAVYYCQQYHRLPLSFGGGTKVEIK

Each variant is given by its three light chain CDRs, as the data file delimits them; those of the parent are KSSQSVLYESRNKNSVA, WASTRES, QQYHRLPLS. This list holds designs with more than six substitutions. Scale: log10 of Kd in nM, estimated from mating counts; low values are strong binders. The mean shown is taken over the replicates in which the pair was detected. A pair that was not seen in any replicate is written "nd"; this usually means weak binding, but a binder can also be missed. Three control strains display no target. For all light chain designs, 4% of the pairings with them gave a signal, with a median of 2.64 and one signal in twenty below 1.59, so weak values seen in few replicates may be background.

CDR-L1,CDR-L2,CDR-L3,group,mean log10 Kd (nM),replicates with signal
TISQSAQQESHNRNSVA,DLSVRGS,QQYDRLPLS,En_HC,1.37,6/6
KVSNQVDGEDRNKNAVA,DASTRES,QQYHRLPLS,GP_Gibbs,-0.07,6/6
KISGYLQKESKNKNNVA,EMVNRES,QQYDRLPLS,En_HC,0.08,6/6
MLYGLSASMSKNKNNVA,EMTTREV,QQYDRLPLV,En_Gen,1.70,1/6
KIGATLNTLMHQKNNVA,DLVMREQ,QQYHRLPLS,En_Gen,0.09,6/6
KLSGLMQSSKFAKNNVA,ENNTREK,QQYDRLPLS,En_Gen,2.78,4/6
KHEELVEYESRNKNSVA,NASTRLS,QQYHRLPLS,GP_Gibbs,-0.39,6/6
IIDQLMFHGNKKANSIA,QASMRFN,QQYHHLPLA,En_Gen,2.44,2/6
KISGSHLYESRNWNAVA,EASQREQ,QQYHRLPLS,GP_Gibbs,-0.01,6/6
NLGQKMSHEYEQRNSIA,DMTVREY,QQYSRIPLI,En_Gibbs,1.36,6/6
QLDWYNSTATASANNVA,DVAQRMN,QQYMRLPLM,En_Gibbs,0.61,6/6
KSSQSVEYERRTKNSVA,SESTRES,QQYMRLLLS,Ctrl,nd,0/6
KMMQQQLYEDRMSNAVA,NASQRES,QQYHRLPLS,GP_Gibbs,-0.05,6/6
KIGATLNQLMTKKNNVA,DLVMREN,QQYHRLPLS,En_Gen,0.38,6/6
FFDFQMLEWQYDANNIA,GATLSIE,QQYGRLPLT,En_Gibbs,1.69,1/6
HVSMLTMMGMKQRNSVA,QMTLREN,QQYDRLPLM,En_Gen,0.30,6/6
KLAMALSVEFGTYHGVA,DADHRMH,QQYNRLPLS,En_Gibbs,0.35,6/6
SLAMLLNQVYAYGSNIA,NAQVLVV,QQYYRLPLT,En_Gibbs,1.43,1/6
KLPQSTMQESVSKNSVA,ELTTRGS,QQYHRLPLS,En_HC,0.34,6/6
GLSQSVEQLSRNKNSVA,HASQREV,QQYHRLPLS,GP_Gibbs,0.20,6/6
RITILSDYYNENRNAIA,ETSLKAH,QQYQMLPLT,En_Gibbs,1.60,3/6
KLPMMYQHTSRNKNNIA,ERSTREE,QQYHHLPLS,En_HC,0.59,6/6
KLRQLMHIESFNKNNVA,EMTTREN,QSYDRLPLS,En_HC,1.26,6/6
TLYGLTNSMSKNKDNVA,EMSTREL,QQYDRLPLV,En_Gen,0.63,6/6
KLQQWVLYEGRNKNSVA,SASTRSD,QQYHRLPLS,GP_Gibbs,-0.05,6/6
TISQMTFVESKTRNNVA,EMTTREN,QDYDRLPLS,En_HC,2.16,5/6
SLTIYTDENGLKMQSIA,GAGNRML,QQYHRLPLT,En_Gibbs,0.91,6/6
KLYVSTMLESHNKNSIA,DLTTRGN,QQYHRLPLS,En_HC,0.44,6/6
KLVQFMNRGTHHTSNIA,DAQNRLD,QQYYRLPLA,En_Gen,nd,0/6
KLAMYTGHMSVSKNNVA,EMETREN,QQYDRLPLS,En_Gen,2.31,3/6
MISQVMNTLTHEGNNVA,DLQNREK,QQYFRLPLS,En_Gen,0.87,6/6
KISQMSYYESINKNSVA,QKSTREE,QDYHRLPLS,En_HC,0.81,6/6
NLQNIGMENSVWKNAIA,DVNIKES,QQYFRLPLL,En_Gibbs,0.87,6/6
HITMGMYVHGRHHSSIA,QAETRMK,QQYDRLPLM,En_Gen,2.88,2/6
TISQMSTLFSQTINNVA,EVSTREQ,QQYDRLPLQ,En_Gen,0.99,6/6
HITYGMMVAGRHSKSIA,QAEERAK,QQYDRLPLA,En_Gen,0.67,6/6
QLDTQLQYMDANKQSVA,EMTEVTT,QQYHRLPLE,En_Gibbs,1.67,3/6
KISFNSLIESKNLNSVA,EMTTREY,QDYDRLPLS,En_HC,2.98,6/6
KLNEYKHETEEKTQNIA,DQTIREP,QQYAHLPLS,En_Gibbs,0.53,6/6
RFPEHLLMLESEIRNIA,NATKTME,QQYFRLPLV,En_Gibbs,0.40,6/6
MVTQMAMTGMMNKRSVA,NASTREN,QQYHRLPLI,En_Gen,0.40,6/6
KLQQSWLYLSRNHNAVA,QASQRLS,QDYHRLPLS,GP_Gibbs,0.11,6/6
KMSQSWLGQDWNKNSVA,EASQRES,QQYHRLPLS,GP_Gibbs,0.03,6/6
SLHMYTLGEKNANSSIA,EKSYRAI,QQYSHLPLC,En_Gibbs,1.34,4/6
TISQMTSLFSQSINSVA,EVSMREE,QQYDRLPLI,En_Gen,1.14,6/6
TISTSMRYESSLKNAIA,NAQTRES,QQYHRLPLA,En_HC,0.31,6/6
KLAMALSVEFGTYHGVA,DADHRMK,QQYNRLPLS,En_Gibbs,0.68,6/6
KLREVHHVETKQKNNVA,DNDTRES,QDYYRLPLS,En_HC,2.18,1/6
KLYDMSALTVTNIRNVA,DNDTREQ,QQYHRLPLS,En_Gen,1.05,6/6
TISGMTNSAASKHNSVA,NVTMRPS,QQYHRLPLS,En_Gen,2.24,6/6
SLHMMPPVGYALNANVA,NASQLFS,QQYFRLPLT,En_Gibbs,1.36,6/6
KLQQSVLPESRNSNSVA,EASLRLS,QQYHRLPLS,GP_Gibbs,0.11,6/6
KFGQSVLMGSYVRNSVA,QSQTREN,QQYDRLPLS,En_HC,1.89,5/6
KVEPSVQGEQRNFNAVA,SASTREQ,QQYHRLPLS,GP_Gibbs,0.12,6/6
KLQQSQLYGSRNKNSVA,EASTRLV,QAYHRLPLS,GP_Gibbs,0.82,6/6

The 7 strongest on average among those seen in every replicate, once more:

{"CDR-L1": "KHEELVEYESRNKNSVA", "CDR-L2": "NASTRLS", "CDR-L3": "QQYHRLPLS", "group": "GP_Gibbs", "mean log10 Kd (nM)": "-0.39", "replicates with signal": "6/6"}
{"CDR-L1": "KVSNQVDGEDRNKNAVA", "CDR-L2": "DASTRES", "CDR-L3": "QQYHRLPLS", "group": "GP_Gibbs", "mean log10 Kd (nM)": "-0.07", "replicates with signal": "6/6"}
{"CDR-L1": "KMMQQQLYEDRMSNAVA", "CDR-L2": "NASQRES", "CDR-L3": "QQYHRLPLS", "group": "GP_Gibbs", "mean log10 Kd (nM)": "-0.05", "replicates with signal": "6/6"}
{"CDR-L1": "KLQQWVLYEGRNKNSVA", "CDR-L2": "SASTRSD", "CDR-L3": "QQYHRLPLS", "group": "GP_Gibbs", "mean log10 Kd (nM)": "-0.05", "replicates with signal": "6/6"}
{"CDR-L1": "KISGSHLYESRNWNAVA", "CDR-L2": "EASQREQ", "CDR-L3": "QQYHRLPLS", "group": "GP_Gibbs", "mean log10 Kd (nM)": "-0.01", "replicates with signal": "6/6"}
{"CDR-L1": "KMSQSWLGQDWNKNSVA", "CDR-L2": "EASQRES", "CDR-L3": "QQYHRLPLS", "group": "GP_Gibbs", "mean log10 Kd (nM)": "0.03", "replicates with signal": "6/6"}
{"CDR-L1": "KISGYLQKESKNKNNVA", "CDR-L2": "EMVNRES", "CDR-L3": "QQYDRLPLS", "group": "En_HC", "mean log10 Kd (nM)": "0.08", "replicates with signal": "6/6"}

Values of this round are not directly comparable with the first-round values of the same sequences. The authors averaged sequences with at least three values out of six and counted those with two or fewer as poor binders.

The measurements come from Li et al. 2023 (doi:10.1038/s41467-023-39022-2) through the FLAb antibody collection.